T1/2 and SEC data for 1 substance are collected here from patent publication US10487147B2, “Anti-PD-L1 antibodies and uses thereof” (Merck Patent GmbH, priority 2011, dated 2019).

Data set [1] can be described thus: Fluorescence monitored thermal unfolding assay of wild type and mutant PD-L1 proteins. In kind it is physicochemical. The settings on record: temperature midpoint of fluorescently monitored thermal denaturation of the PD-L1 antigen protein. The source says: The results are summarized in the table below, where 48 point mutants of PD-L1 were compared to wild-type PD-L1 antigen for antibody binding. SPR (Biacore) was used to perform a kinetic study allowing determination of kinetic rate constants (ka and kd). Briefly, goat polyclonal anti-human Fc antibody was chemically coupled to a CM5 chip. […] Buffer was used to wash out unbound antibody until the baseline RU stabilized. Antigen (wild-type or mutant PD-L1) was next injected at a fixed concentration for 3 minutes and the association was recorded. Buffer was injected for a further 3 minutes and dissociation was observed. […] The rate constants were determined by iterative fitting of the data to a 1:1 binning model by an algorithm that minimizes Chi-squared. The equilibrium dissociation constant (KD) was calculated as the ratio of the kinetic constants and the change in the Gibbs free energy of binding of mutant relative to wild-type PD-L1 (ΔΔGmut) was derived from the ratio of the wild-type and mutant KDs. […] Mutants at Y56 bad such a low affinity that the KD could be accurately measured and the minimum KD is given instead. For D61A no binding could be found. […] The temperature midpoint of fluorescently monitored thermal denaturation is given for the wild type and mutant proteins. ND: Not Determined; BP: Biphasic. […]

Data set [2] in a line: Analytical size exclusion chromatography of wild type and mutant PD-L1 proteins. In kind it is physicochemical. Further details: key: M: monodisperse and the same elution volume as wild type; M/T: peak at the same elution volume as wild type but with an additional tail. The settings on record: qualitative appearance of the PD-L1 antigen protein on size exclusion chromatography. (In general: Size exclusion chromatography separates by hydrodynamic size, large species first.)

As for “PDL-1: wild-type PD-L1 antigen used for antibody binding”, the T1/2 in data set [1] amounted to 59.1 °C. The SEC result in data set [2] is reported as “M”.
